Results from US12296011B2, “Methods for photodynamic therapy” (Sun Pharmaceutical Industries, Inc., priority 2018, dated 2025).

Test: Open-label maximal use pharmacokinetic study, topical ALA under occlusion (first study)
Settings: topical to upper extremities compared with intravenous and oral dosing of about 100 mg ALA

In the case of `Cl.NCC(=O)CCC(=O)O` [ALA, 5-amino-4-oxopentanoic acid hydrochloride], the “systemic exposure to ALA and PpIX” value is reported as “lower systemic exposure to ALA and PpIX than intravenous and oral dosing”.
